The IC50 is the concentration that gives 50% inhibition.

By UniProt entry, the sequences of proteins in these tests, tags left out.
UniProt P42336, whole entry, species assumed: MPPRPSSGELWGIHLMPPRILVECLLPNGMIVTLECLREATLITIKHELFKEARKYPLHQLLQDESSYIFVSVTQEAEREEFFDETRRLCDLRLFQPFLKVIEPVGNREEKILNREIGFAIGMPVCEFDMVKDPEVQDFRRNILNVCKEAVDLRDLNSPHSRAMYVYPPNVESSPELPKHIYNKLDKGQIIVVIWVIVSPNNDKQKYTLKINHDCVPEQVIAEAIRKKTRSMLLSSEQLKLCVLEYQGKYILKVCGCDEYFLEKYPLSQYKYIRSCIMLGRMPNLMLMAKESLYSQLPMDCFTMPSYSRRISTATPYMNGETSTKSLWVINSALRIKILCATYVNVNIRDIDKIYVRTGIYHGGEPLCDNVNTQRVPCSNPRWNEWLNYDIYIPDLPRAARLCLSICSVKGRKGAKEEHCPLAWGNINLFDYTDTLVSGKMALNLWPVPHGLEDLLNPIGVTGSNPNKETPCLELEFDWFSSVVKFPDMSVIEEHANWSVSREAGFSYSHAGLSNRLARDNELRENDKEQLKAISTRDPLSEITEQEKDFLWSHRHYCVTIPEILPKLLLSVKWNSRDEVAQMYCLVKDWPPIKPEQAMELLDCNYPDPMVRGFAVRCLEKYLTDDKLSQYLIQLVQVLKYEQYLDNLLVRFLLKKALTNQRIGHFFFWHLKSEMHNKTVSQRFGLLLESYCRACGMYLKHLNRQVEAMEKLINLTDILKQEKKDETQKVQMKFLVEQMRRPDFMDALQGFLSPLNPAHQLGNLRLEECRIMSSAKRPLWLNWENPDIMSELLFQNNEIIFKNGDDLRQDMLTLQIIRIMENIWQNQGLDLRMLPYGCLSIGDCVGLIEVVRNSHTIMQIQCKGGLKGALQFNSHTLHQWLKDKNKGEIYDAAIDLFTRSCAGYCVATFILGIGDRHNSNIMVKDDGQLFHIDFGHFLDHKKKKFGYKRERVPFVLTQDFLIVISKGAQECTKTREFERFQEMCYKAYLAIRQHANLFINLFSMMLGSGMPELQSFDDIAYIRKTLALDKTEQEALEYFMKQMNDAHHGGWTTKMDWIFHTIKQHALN

For this assay, the target named is T1, PI3K α (Homo sapiens, UniProt P42336).
T1 construct: Full length p110 subunits of PI3K α, β and δ, N-terminally labeled with polyHis tag; polyHis (N); made in house; host or cells: Sf9 insect cells (baculovirus)
The assay can be described thus: In vitro PI3 kinase enzyme assay (alpha), ATP loss, bioluminescence.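 Note: purified p110α/p85 heterodimer acting on PtdIns(4,5)P2 at room temperature, remaining ATP read by luminescence, inhibition scaled between compound-free wells with and without enzyme.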 Format: biochemical. As to conditions: read-out: PI3Kα ATP loss IC50. As to the method:
The compound in DMSO (1 μL) was added per test well, and the inhibition relative to reactions containing no compound, with and without enzyme was determined.

For `CC(=O)Nc1nc2ccc(-c3ccnc(Sc4cccc(F)c4)n3)cc2s1` [Example 109, N-(6-(2-((3-fluorophenyl)sulfanyl)-4-pyrimidinyl)-1,3-benzothiazol-2-yl)acetamide], the IC50 worked out at 199 nM.

The record behind these values is patent US7928140B2, “Benzothiazole PI3 kinase modulators for cancer treatment” (Amgen Inc., priority 2007, dated 2011).
